Source: ChEMBL document CHEMBL1153392, “Identification of a metabolically stable triazolopyrimidine-based dihydroorotate dehydrogenase inhibitor with antimalarial activity in mice” (J Med Chem, 2009)

Test system: Plasmodium berghei
Assay: Inhibition of Plasmodium berghei ANKA DHODH
Outline: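 Truncated soluble enzyme expressed in E. coli and purified. DCIP (0.12 mM) reduction followed at 600 nm with 5-10 nM enzyme, 0.2 mM L-dihydroorotate and 0.02 mM CoQD in 100 mM HEPES pH 8.0, 150 mM NaCl, 10% glycerol, 0.1% Triton, 20 °C. Triplicate points per concentration; IC50 fitted.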

Work on `Cc1cc(Nc2cccc(Cl)c2)n2ncnc2n1` yielded an IC50 of 31 µM.
